Experimental data: patent publication US7803831B2, “3-(2-hydroxy-phenyl)-1H-pyrazole-4-carboxylic acid amide derivatives as HSP90 inhibitors for the treatment of cancer” (Vernalis (Cambridge) Limited, priority 2002, dated 2010)

Protein sequences, listed by entry. Tags and fused reporters are not part of them.
UniProt P02829, whole entry, looked up: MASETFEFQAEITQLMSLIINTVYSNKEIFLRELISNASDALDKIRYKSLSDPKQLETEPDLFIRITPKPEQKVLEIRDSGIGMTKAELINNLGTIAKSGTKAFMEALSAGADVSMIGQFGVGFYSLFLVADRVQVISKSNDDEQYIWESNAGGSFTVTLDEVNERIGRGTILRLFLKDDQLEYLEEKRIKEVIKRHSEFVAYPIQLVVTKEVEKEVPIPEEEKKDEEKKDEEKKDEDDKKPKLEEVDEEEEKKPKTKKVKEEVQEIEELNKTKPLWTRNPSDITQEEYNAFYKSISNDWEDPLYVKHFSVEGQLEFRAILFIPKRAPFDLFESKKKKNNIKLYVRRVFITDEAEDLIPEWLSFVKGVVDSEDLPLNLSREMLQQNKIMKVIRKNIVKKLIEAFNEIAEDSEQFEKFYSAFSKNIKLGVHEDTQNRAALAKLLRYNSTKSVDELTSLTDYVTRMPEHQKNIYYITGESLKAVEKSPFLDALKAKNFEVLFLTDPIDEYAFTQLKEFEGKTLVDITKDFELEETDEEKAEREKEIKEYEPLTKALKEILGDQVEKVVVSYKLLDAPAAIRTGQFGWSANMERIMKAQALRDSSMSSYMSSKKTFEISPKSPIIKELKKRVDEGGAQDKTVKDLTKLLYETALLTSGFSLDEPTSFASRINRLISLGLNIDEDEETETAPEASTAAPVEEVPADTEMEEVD

Target: T1, yeast HSP90 (Saccharomyces cerevisiae, UniProt P02829)
T1 construct: made in house; host or cells: E. coli
Experiment: Malachite green ATPase assay
Assay type: biochemical
Settings: activity range
Source text: The intrinsic ATPase activity of HSP90 may be measured using yeast HSP90 as a model system. The assay, based on the use of malachite green for the measurement of inorganic phosphate, was used to test the HSP90 inhibitory activity of the compounds of the Examples herein.
Malachite Green ATPase Assay
Chemicals are of the highest purity commercially available and all aqueous solutions are made up in AR water. Because of the need to minimise contamination with inorganic phosphate, precautions should be taken with solutions and apparatus used in the assays. Glassware and pH meters are rinsed with double distilled or deionised water before use and, wherever possible, plastic ware should be used. Gloves are worn for all procedures. • (1) Greiner 384-well (Greiner 781101) or Costar 384-well flat-bottomed polystyrene multiwell plates (VWR). • (2) Assay buffer of (a) 100 mM Tris-HCl, pH 7.4, (b) 150 mM KCI, (c) 6 mM MgCl2. Stored at room temperature. • (3) 0.0812% (w/v) malachite green (M 9636, Sigma Aldrich Ltd., Poole, UK). Stored at room temperature. • (4) 2.32% (w/v) polyvinyl alcohol USP (P 1097, Sigma Aldrich Ltd, Poole, UK) in boiling water (see Comment 1), allowed to cool, and stored at room temperature. • (5) 5.72% (w/v) ammonium molybdate in 6 M hydrochloric acid. […] Measure Absorbance at 620 nm using a suitable plate reader (e.g. Victor, Perkin Elmer Life Sciences, Milton Keynes, UK). […]

Row | SMILES | IC50 [µM]
1 | NS(=O)(=O)c1ccc(CNC(=O)c2c[nH]nc2-c2cc(Cl)c(O)cc2O)cc1 [Example 21] | < 50
2 | CC(=O)c1ccc(NC(=O)c2c[nH]nc2-c2cc(Cl)c(O)cc2O)cc1 [Example 1, 3-(5-chloro-2,4-dihydroxy-phenyl)-1H-pyrazole-4-carboxylic acid (4-acetyl-phenyl)-amide] | < 50
